Chains of the proteins cited; added tags and fusions are not shown.
UniProt Q04864, whole entry: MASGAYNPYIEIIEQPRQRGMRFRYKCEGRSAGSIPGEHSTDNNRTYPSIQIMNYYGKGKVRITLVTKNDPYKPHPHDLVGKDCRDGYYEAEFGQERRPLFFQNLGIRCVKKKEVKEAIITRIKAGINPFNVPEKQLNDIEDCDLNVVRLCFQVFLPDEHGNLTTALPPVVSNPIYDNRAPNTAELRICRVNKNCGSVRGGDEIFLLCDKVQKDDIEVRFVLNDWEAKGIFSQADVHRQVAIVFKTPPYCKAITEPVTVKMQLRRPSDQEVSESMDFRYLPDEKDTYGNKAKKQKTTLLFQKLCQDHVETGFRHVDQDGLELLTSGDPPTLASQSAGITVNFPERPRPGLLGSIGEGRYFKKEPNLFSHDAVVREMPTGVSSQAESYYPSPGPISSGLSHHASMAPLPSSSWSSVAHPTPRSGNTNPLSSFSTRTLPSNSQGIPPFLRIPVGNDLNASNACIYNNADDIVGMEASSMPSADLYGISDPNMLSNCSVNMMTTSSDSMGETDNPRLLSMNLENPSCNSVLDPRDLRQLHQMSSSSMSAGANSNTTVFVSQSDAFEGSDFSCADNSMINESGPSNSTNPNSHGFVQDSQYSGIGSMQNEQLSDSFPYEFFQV

According to patent US10226464B2, “Small molecule NF-κB inhibitors” (ImmuneTarget, Inc., priority 2015, dated 2019):

How the values were obtained:
c-Rel protein = c-Rel protein (Homo sapiens (Human), UniProt Q04864); test: Electrophoretic Mobility Shift Assay (EMSA), Rel/NF-κB DNA binding inhibition; conditions: read-out: EMSA IC50; 10 nM c-Rel protein, phosphor-labeled CD28RE oligonucleotide
NF-κB = NF-κB GFP Assay (NFκB/Jurkat/GFP transcriptional reporter cell line); conditions: read-out: NF-KB GFP IC50; NF-κB/Jurkat/GFP reporter cells, TNF-α 5 ng/ml, 24 hours

IC50 (c-Rel protein): < 5 µM
IC50 (NF-κB): < 20 µM
Structure (SMILES): O=C(O)CCCCOc1ccc2cc3c(=O)[nH]c(=O)nc-3oc2c1Cl
